Values quoted from earlier work in patent US10729636B2, “Compositions comprising peptide [sequence]” (NURITAS LIMITED, priority 2016, dated 2020).

Conditions: in vivo; cited from earlier work

In the case of “PEG(2,40 K) conjugate of INF-alpha-2b: A PEG(2,40 K) conjugate of INF-alpha-2b”, the “prolonged plasma half life time compared to the native protein” value is given as 330 fold.
